{"sequences": {"note": "Chains of the proteins cited; added tags and fusions are not shown. Residues count along the entry.", "UniProt P31424, 21-1203": "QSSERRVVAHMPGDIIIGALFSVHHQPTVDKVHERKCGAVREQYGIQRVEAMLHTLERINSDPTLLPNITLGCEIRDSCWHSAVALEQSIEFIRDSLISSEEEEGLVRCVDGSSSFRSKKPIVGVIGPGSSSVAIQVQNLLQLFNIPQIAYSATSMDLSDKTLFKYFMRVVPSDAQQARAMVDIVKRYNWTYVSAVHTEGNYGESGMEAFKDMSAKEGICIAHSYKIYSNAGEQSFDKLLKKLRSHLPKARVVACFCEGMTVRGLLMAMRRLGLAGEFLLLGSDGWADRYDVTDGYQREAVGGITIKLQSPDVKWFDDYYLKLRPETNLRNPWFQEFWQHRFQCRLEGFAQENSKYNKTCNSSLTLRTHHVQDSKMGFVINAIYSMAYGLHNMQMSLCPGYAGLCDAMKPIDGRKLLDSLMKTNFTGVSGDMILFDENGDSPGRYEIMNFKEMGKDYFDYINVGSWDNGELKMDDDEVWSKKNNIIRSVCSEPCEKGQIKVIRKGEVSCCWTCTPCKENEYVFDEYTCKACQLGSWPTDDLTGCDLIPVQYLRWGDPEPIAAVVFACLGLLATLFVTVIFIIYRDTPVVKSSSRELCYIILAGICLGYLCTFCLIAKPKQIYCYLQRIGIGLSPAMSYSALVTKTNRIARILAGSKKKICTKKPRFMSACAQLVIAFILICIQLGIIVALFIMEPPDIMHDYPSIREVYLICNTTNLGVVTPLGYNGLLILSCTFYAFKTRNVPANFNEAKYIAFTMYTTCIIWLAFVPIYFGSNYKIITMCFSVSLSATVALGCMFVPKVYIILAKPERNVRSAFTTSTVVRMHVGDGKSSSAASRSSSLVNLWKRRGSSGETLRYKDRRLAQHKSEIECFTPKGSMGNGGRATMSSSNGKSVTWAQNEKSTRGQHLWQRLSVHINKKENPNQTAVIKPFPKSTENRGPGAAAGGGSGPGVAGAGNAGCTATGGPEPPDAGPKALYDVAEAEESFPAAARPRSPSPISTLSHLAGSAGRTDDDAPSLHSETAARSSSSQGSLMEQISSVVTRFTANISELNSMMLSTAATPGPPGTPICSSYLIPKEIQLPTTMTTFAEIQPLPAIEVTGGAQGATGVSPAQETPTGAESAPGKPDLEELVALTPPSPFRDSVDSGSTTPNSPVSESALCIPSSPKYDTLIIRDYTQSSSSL"}, "source": "patent US20080032998A1", "about": "“Pyrazolopyrimidines, a process for their preparation and their use as medicine” (MERZ PHARMA GMBH & CO. KGAA, priority 2006, published 2008)", "target": "T1, transmembrane allosteric modulatory sites of mGluR5 receptors in cortical membranes (Rattus norvegicus, UniProt P31424)", "T1 construct": "from tissue; host or cells: rat brain cortex membranes (male Sprague-Dawley)", "assay": "[3H]-MPEP binding assay in rat cortical membranes", "protocol": "Male Sprague-Dawley rats (200-250 g) are decapitated and their brains are removed rapidly. The cortex is dissected and homogenized in 20 volumes of ice-cold 0.32 M sucrose using a glass-Teflon homogenizer. The homogenate is centrifuged at 1000×g for 10 minutes. The pellet is discarded and the supernatant centrifuged at 20,000×g for 20 minutes. The resulting pellet is re-suspended in 20 volumes of distilled water and centrifuged for 20 minutes at 8000×g. Then the supernatant and the buffy coat are centrifuged at 48,000×g for 20 minutes in the presence of 50 mM Tris-HCl, pH 8.0. The pellet is then re-suspended and centrifuged two to three more times at 48,000×g for 20 minutes in the presence of 50 mM Tris-HCl, pH 8.0. All centrifugation steps are carried out at 4° C. After resuspension in 5 volumes of 50 mM Tris-HCl, pH 8.0 the membrane suspension is frozen rapidly at −80° C. […]\nAlternatively, assays are performed with [^3H]-MMPEP (2-(3-methoxyphenylethynyl)-6-methylpyridine hydrochloride) as radioligand. […] Following separation and rinse, the filters are placed into scintillation liquid (5 ml Ultima Gold, Perkin Elmer, Germany) and radioactivity retained on the filters is determined with a conventional liquid scintillation counter (Canberra Packard, Germany).", "data": [{"smiles": "Cc1cccc(C#Cc2ccccc2)n1", "note": "[MPEP, 2-methyl-6-(phenylethynyl)pyridine]", "values": [{"measurement": "IC50", "value": "11.2 ± 0.64", "unit": "nM"}]}]}
